ChEMBL document CHEMBL5584290, “Novel flexible biphenyl PfDHFR inhibitors with improved antimalarial activity” (RSC Med Chem, 2024)
≈ marks a conversion by molar mass, not a printed value.

The chains behind the UniProt entries cited, without tags or fusion partners. Where a name states a change or a piece, a line headed by the entry shows the natural chain unless it says otherwise.
UniProt P13922: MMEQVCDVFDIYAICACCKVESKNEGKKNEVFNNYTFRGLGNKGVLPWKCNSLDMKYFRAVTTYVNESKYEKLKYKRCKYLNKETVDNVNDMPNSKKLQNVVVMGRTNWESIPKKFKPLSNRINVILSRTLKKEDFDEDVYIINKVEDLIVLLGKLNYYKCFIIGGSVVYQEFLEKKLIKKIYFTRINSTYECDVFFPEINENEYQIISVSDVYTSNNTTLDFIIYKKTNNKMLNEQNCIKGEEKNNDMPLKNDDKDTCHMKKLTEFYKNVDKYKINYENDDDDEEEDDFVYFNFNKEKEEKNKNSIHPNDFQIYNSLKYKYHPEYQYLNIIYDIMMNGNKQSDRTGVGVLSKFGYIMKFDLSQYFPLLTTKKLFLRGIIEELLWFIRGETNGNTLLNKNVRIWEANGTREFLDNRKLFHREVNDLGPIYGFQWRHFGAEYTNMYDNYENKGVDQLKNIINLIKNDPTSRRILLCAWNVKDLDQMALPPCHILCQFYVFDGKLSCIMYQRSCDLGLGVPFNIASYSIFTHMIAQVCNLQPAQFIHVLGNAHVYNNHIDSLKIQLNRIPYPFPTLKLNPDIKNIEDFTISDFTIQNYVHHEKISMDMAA

Key:
[1] = Cytotoxicity against African green monkey Vero cells assessed as reduction in cell viability incubated for 72 hrs by sulforhodamine B assay
physchem [2] = conditions: buffer, pH 4.5
[3] = biological target: Bifunctional dihydrofolate reductase-thymidylate synthase (Plasmodium falciparum K1, UniProt P13922); experiment: Inhibition of wild type Plasmodium falciparum DHFR expressed in Escherichia coli BL21(DE3) pLysS cells assessed as inhibition constant using DHF as substrate measured for 80 sec in presence of NADPH
in vitro [4] = conditions: rat, liver microsomes
physchem [5] = conditions: buffer, pH 6.5
physchem [6] = conditions: buffer, pH 2
physchem [7] = conditions: buffer, pH 7.4
physchem [8] = conditions: octanol/phosphate buffer, pH 7.4
in vitro [9] = conditions: human, liver microsomes

Structure (SMILES)	IC50 at 72 h [1] [nM]	solubility kinetic at 2 h, 200 µM (physchem [2]) [µM]	Ki [3] [nM]	microsomal CLint at 1 h (in vitro [4]) [µL/min/mg]	solubility kinetic at 2 h, 200 µM (physchem [5]) [µM]	solubility kinetic at 2 h, 200 µM (physchem [6]) [µM]	solubility kinetic at 2 h, 200 µM (physchem [7]) [µM]	logD at 2 h, 100 µM (physchem [8])	microsomal CLint at 1 h (in vitro [9]) [µL/min/mg]
CCc1nc(N)nc(N)c1OCCCCOc1ccc(-c2ccc(C(=O)O)cc2)cc1.Cl	14300	< 4	0.24	< 3	< 4	56.4	< 4	1.03	5.95
CCc1nc(N)nc(N)c1OCCCCOc1ccc(-c2ccccc2)cc1.Cl		5.88	0.26	19.3	< 4	75.7	< 4	> 2.5	7.62
CCc1nc(N)nc(N)c1OCCCCOc1cccc(-c2ccccc2)c1	6540		0.25	378				> 2.5	35.4
CCc1nc(N)nc(N)c1OCCCOc1cccc(-c2ccccc2)c1.Cl	570	32.1	0.6		< 4	184	23.1	> 2.5	
CCOC(=O)c1ccc(-c2ccc(OCCCOc3c(N)nc(N)nc3CC)cc2)cc1	14200		0.58	182				> 2.5	134
CCc1nc(N)nc(N)c1OCCCOc1ccc(-c2ccc(C(=O)O)cc2)cc1.Cl	33800	< 4	0.16	3.63	< 4	108	< 4	0.97	6.27
CCc1nc(N)nc(N)c1OCCCOc1ccc(-c2ccccc2)cc1		17.4 (≈ 6.36 µg/mL)	0.24	12.5	< 4	55.7 (≈ 20.3 µg/mL)	< 4	> 2.5	8.94
